Biological target: human recombinant MAGL (Homo sapiens, UniProt Q99685)
Assay: Human recombinant MAGL inhibition assay
Format: biochemical
Conditions: read-out: IC50 vs MAGL; mean based on triplicate measurement

The chains behind the UniProt entries cited, without tags or fusion partners.
UniProt Q99685, whole entry: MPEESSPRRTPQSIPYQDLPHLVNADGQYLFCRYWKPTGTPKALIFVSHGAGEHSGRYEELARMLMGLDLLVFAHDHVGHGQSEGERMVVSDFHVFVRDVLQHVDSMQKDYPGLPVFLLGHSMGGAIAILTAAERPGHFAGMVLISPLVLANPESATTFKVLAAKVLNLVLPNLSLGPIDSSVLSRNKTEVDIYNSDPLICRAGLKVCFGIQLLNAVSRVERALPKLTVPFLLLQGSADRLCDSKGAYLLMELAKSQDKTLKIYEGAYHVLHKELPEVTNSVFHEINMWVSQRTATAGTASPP

O=C(Oc1ccc([N+](=O)[O-])cc1)N1CCN(Cc2cccc(Oc3ccccc3)c2)CC1 [JLZ195]
IC50: 10.7 µM

Reference: paper PMC9583304 (ACS Omega, 2022)
